## Cyclic peptide permeability, from CycPeptMPDB

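The data file gives no further conditions (lipid, pH, time, direction or concentration), and values from different papers need not be comparable. The list need not hold all peptides of the study. Peptides that the database sets to -10, its floor, are left out.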

PAMPA measures passive passage through an artificial lipid membrane. Values are log10 P with P in cm/s, so -5 is more permeable than -7.

SMILES	PAMPA (log10 cm/s)
CC(=O)N1CCC[C@H]1C(=O)N[C@@H]1C(=O)N(C)[C@H](CC(C)C)C(=O)N(C)[C@@H](CC(C)C)C(=O)N(C)[C@@H](CC(C)C)C(=O)N(C)[C@@H](CC(C)C)C(=O)N[C@H](C)C(=O)N[C@@H](CC(C)C)C(=O)N2CCC[C@@H]2C(=O)O[C@@H]1C	-5.01
CC(=O)N1CCC[C@H]1C(=O)N[C@@H]1C(=O)N(C)[C@H](CC(C)C)C(=O)N(C)[C@@H](CC(C)C)C(=O)N[C@@H](CC(C)C)C(=O)N(C)[C@H](CC(C)C)C(=O)N(C)[C@@H](C)C(=O)N[C@@H](CC(C)C)C(=O)N2CCC[C@@H]2C(=O)O[C@@H]1C	-5.44
CCC[C@H]1NC(=O)[C@H](Cc2ccc(OC)cc2)NC(=O)[C@@H](CC)NC(=O)[C@@H](NC(=O)[C@@H](CC(C)C)N(C)C(=O)[C@@H]2CCCN2C(C)=O)[C@@H](C)OC(=O)[C@@H]2CCCN2C(=O)[C@H](CC(C)C)NC(=O)[C@@H](C)N(C)C1=O	-6.85
COc1ccc(C[C@@H]2NC(=O)[C@@H](Cc3cccc4ccccc34)NC(=O)[C@@H](NC(=O)[C@@H](CC(C)C)N(C)C(=O)[C@@H]3CCCN3C(C)=O)[C@@H](C)OC(=O)[C@@H]3CCCN3C(=O)[C@H](CC(C)C)NC(=O)[C@@H](C)N(C)C(=O)[C@@H](CC(C)C)NC2=O)cc1	-6.85
CC[C@H]1NC(=O)[C@@H](NC(=O)[C@@H](CC(C)C)N(C)C(=O)[C@@H]2CCCN2C(C)=O)[C@@H](C)OC(=O)[C@@H]2CCCN2C(=O)[C@H](CC(C)C)NC(=O)[C@@H](C)N(C)C(=O)[C@@H](CC2CCCCC2)NC(=O)[C@H](CC(C)C)NC1=O	-6.18
CC(=O)N[C@@H]1C(=O)N2CCC[C@H]2C(=O)N(C)[C@H](CC(C)C)C(=O)N(C)[C@H](CC(C)C)C(=O)N[C@H](CC(C)C)C(=O)N[C@H](CC(C)C)C(=O)N(C)[C@H](C)C(=O)N[C@@H](CC(C)C)C(=O)N2CCC[C@@H]2C(=O)O[C@@H]1C	-6.72
CC(=O)N[C@@H]1C(=O)N2CCC[C@H]2C(=O)N(C)[C@H](CC(C)C)C(=O)N[C@H](CC(C)C)C(=O)N[C@H](CC(C)C)C(=O)N(C)[C@H](CC(C)C)C(=O)N[C@@H](C)C(=O)N[C@@H](CC(C)C)C(=O)N2CCC[C@@H]2C(=O)O[C@@H]1C	-6.85
CCC[C@@H]1NC(=O)[C@@H](CCC)NC(=O)[C@@H](NC(=O)[C@@H](CC(C)C)N(C)C(=O)[C@@H]2CCCN2C(C)=O)[C@@H](C)OC(=O)[C@@H]2CCCN2C(=O)[C@H](CC(C)C)NC(=O)[C@@H](C)N(C)C(=O)[C@@H](Cc2cccc3ccccc23)NC1=O	-5.39
CC(=O)N1CCC[C@H]1C(=O)N[C@@H]1C(=O)N(C)[C@H](CC(C)C)C(=O)N(C)[C@@H](CC(C)C)C(=O)N(C)[C@@H](CC(C)C)C(=O)N(C)[C@@H](CC(C)C)C(=O)N[C@@H](C)C(=O)N[C@@H](CC(C)C)C(=O)N2CCC[C@@H]2C(=O)O[C@@H]1C	-5.20
CC(=O)N1CCC[C@H]1C(=O)N(C)[C@H](CC(C)C)C(=O)N[C@@H]1C(=O)N[C@H](Cc2cccc3ccccc23)C(=O)N[C@@H](CCc2ccccc2)C(=O)N[C@H](CC(C)C)C(=O)N(C)[C@H](C)C(=O)N[C@@H](CC(C)C)C(=O)N2CCC[C@H]2C(=O)O[C@@H]1C	-5.46
CC[C@H]1NC(=O)[C@@H](NC(=O)[C@@H](CC(C)C)N(C)C(=O)[C@@H]2CCCN2C(C)=O)[C@@H](C)OC(=O)[C@@H]2CCCN2C(=O)[C@H](CC(C)C)NC(=O)[C@@H](C)N(C)C(=O)[C@@H](Cc2ccccc2)NC(=O)[C@H](Cc2ccc(F)cc2)NC1=O	-5.59
CC(=O)N1CCC[C@H]1C(=O)N(C)[C@H](CC(C)C)C(=O)N[C@@H]1C(=O)N[C@H](CC2CCCCC2)C(=O)N[C@@H](Cc2ccccc2)C(=O)N[C@H](Cc2ccc(F)c(F)c2)C(=O)N(C)[C@H](C)C(=O)N[C@@H](CC(C)C)C(=O)N2CCC[C@H]2C(=O)O[C@@H]1C	-5.20

2 of these entries, quoted again:

{"smiles": "CC(=O)N1CCC[C@H]1C(=O)N[C@@H]1C(=O)N(C)[C@H](CC(C)C)C(=O)N(C)[C@@H](CC(C)C)C(=O)N[C@@H](CC(C)C)C(=O)N(C)[C@H](CC(C)C)C(=O)N(C)[C@@H](C)C(=O)N[C@@H](CC(C)C)C(=O)N2CCC[C@@H]2C(=O)O[C@@H]1C", "PAMPA (log10 cm/s)": "-5.44"}
{"smiles": "CCC[C@@H]1NC(=O)[C@@H](CCC)NC(=O)[C@@H](NC(=O)[C@@H](CC(C)C)N(C)C(=O)[C@@H]2CCCN2C(C)=O)[C@@H](C)OC(=O)[C@@H]2CCCN2C(=O)[C@H](CC(C)C)NC(=O)[C@@H](C)N(C)C(=O)[C@@H](Cc2cccc3ccccc23)NC1=O", "PAMPA (log10 cm/s)": "-5.39"}

Values of Kelly et al. 2021, doi:10.1021/jacs.0c06115, as listed in CycPeptMPDB.